Laboratory results reported in patent publication US8679990B2, “Self-decontaminating coatings and fabrics” (dated 2014).

Columns and labels:
[1] = Solubility of adducts in water, ammonium hydroxide water, isopropanol and toluene; details: for Solubility in Ammonium Hydroxide Water (28-30% NH4OH) / Solubility in Isopropanol / Solubility in Toluene: 10% by weight of adduct; for Solubility in Water: minimal undefined concentration
[2] = Solubility statements in running text
[3] = Solubility of aluminum phthalocyanine chloride (AlPc-Cl) in adduct/solvent; details: 0.1% adduct by weight; minimum AlPc-Cl concentration tested in brackets (0.10% weight)

| Compound | Solubility in Ammonium Hydroxide Water (28-30% NH4OH) [1] | Solubility in Isopropanol [1] | Solubility in Toluene [1] | Solubility in Water [1] | Solubility in Water [2] | Solubility of AlPc-Cl in adduct/Isopropanol [3] |
| --- | --- | --- | --- | --- | --- | --- |
| CC(O)CNC(=O)c1c(Br)c(Br)c(Br)c(Br)c1C(=O)O (stereo not drawn) | No, oily | No, oily | No, oily | No, oily |  |  |
| O=C(O)c1c(Br)c(Br)c(Br)c(Br)c1C(=O)NCCNCCO | No | No | No | No |  |  |
| zinc phthalocyanine tetrasulfonate |  |  |  |  | highly soluble |  |
| O=C(O)c1c(Br)c(Br)c(Br)c(Br)c1C(=O)NCCOCCOCCNC(=O)c1c(Br)c(Br)c(Br)c(Br)c1C(=O)O | No | No | No | No |  |  |
| CC(O)CN(CC(C)O)C(=O)c1c(Br)c(Br)c(Br)c(Br)c1C(=O)O (stereo not drawn) | Yes | Yes | No | Yes |  | No [0.10%] |
